Assay [1] has as its target T1, Histamine H3 receptor (Homo sapiens, UniProt Q9Y5N1). Briefly: Displacement of [3H[N-alpha-methylhistamine form human recombinant histamine H3 receptor expressed in CHO cells after 1 hr by liquid scintillation counting. Format: cell-based. The gist of the method: (§1)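 Used CHO cells stably expressing the human H3R for both affinity (pKi) and functional agonist measurements. Each value is the mean ± SEM of n = 3.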

Protein sequences, listed by entry. Tags and fused reporters are not part of them. Lines headed by an entry give the natural chain unless they say otherwise; changes in a name come on top.
UniProt Q9Y5N1: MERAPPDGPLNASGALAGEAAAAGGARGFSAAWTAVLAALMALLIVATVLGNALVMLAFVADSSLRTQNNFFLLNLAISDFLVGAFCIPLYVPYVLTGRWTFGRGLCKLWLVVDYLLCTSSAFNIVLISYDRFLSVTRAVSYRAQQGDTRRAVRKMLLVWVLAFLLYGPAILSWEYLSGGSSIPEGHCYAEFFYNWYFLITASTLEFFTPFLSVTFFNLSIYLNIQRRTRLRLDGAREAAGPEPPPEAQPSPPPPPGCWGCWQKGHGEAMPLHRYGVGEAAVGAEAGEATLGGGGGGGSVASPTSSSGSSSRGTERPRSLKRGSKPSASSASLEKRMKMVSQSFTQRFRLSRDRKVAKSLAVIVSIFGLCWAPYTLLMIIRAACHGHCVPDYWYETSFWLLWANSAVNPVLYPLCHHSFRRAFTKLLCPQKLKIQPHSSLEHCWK

Assay [2] addresses T1, Histamine H3 receptor. Briefly: Agonist activity at human recombinant histamine H3 receptor expressed in CHO cells assessed as [35S]GTPgammaS binding after 1 hr by liquid scintillation counting. Format: functional, cell-based. The gist of the method: as §1

Regarding `c1ccc(NCCc2c[nH]cn2)cc1`, the Ki (as a rule, a measure of affinity in units of concentration, obtained from inhibition or displacement) in assay [1] stood at 56 nM. The EC50 (usually the concentration giving half of the maximal effect) in assay [2] worked out at 320 nM.

The record behind these values is ChEMBL document CHEMBL1158577, “Role of hydrophobic substituents on the terminal nitrogen of histamine in receptor binding and agonist activity: development of an orally active histamine type 3 receptor agonist and evaluation of its antistress activity in mice” (J Med Chem, 2010).
